# Measured affinities in a library of Ab-14 heavy chain variants

Reference: Engelhart et al. 2022, doi:10.1038/s41597-022-01779-4. File: FLAb, binding data.

Target: peptide PDVDLGDISGINAS, taken from heptad repeat 2 (HR2) of SARS-CoV-2 spike.

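The parent was found by panning a naive human phage display library on the peptide. AAYL49 was designed without a model: most single CDR substitutions and a random sample of double and triple ones. The assay is AlphaSeq: two haploid yeast populations carry antibody and antigen on their surface. Pairs that bind mate more often; barcode pairs of the diploids are counted by sequencing. Read counts were normalised to the haploid input and turned into Kd by a linear fit to BCL2-family pairs of known affinity, for each replicate. The assay was run in three technical replicates.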

Parent: Ab-14, a human scFv built as VH, three GGGGS repeats, VL. Only the CDRs of the heavy chain vary.
VH: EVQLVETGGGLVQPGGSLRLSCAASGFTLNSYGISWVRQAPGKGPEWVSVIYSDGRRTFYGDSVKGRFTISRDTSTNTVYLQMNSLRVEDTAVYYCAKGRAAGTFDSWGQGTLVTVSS
VL: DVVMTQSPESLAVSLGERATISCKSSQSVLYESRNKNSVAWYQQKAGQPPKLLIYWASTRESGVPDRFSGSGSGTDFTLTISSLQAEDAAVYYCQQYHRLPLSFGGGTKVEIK

Substitutions are numbered in sequence along the VH above, starting at 1 (not Kabat).
This list gathers variants with a substitution at R56 (VH, numbered from residue 1).
The Kd shown is the geometric mean over detected replicates; a lower Kd is a better binder.
"nd" marks a missing value. The strain was present, yet no cells mated with the target were sequenced in any replicate, which points to weak or no binding.
Three control strains display no target. For library AAYL49, 15% of the pairings with them gave a signal, with a median of 11 µM and one signal in twenty below 680 nM, so weak values seen in few replicates may be background.

* R56S+G61H+V64G: nd (0 of 3 replicates)
* F27V+V50P+R56D: nd (0 of 3 replicates)
* G26D+R56D+S63L: 290 µM (1 of 3 replicates)
* G33D+R56K: nd (0 of 3 replicates)
* R56E+S63K+V64H: nd (0 of 3 replicates)
* R56C+A102V+T104H: 220 µM (1 of 3 replicates)
* D54L+R56S+K65A: 4.1 µM (2 of 3 replicates)
* L29R+R56D+A102H: nd (0 of 3 replicates)
* S53L+R56I+A101D: 580 nM (1 of 3 replicates)
* V50D+R56I: nd (0 of 3 replicates)
* I34C+R56H+V64K: 36 µM (2 of 3 replicates)
* R56A+K65E+A101C: 770 nM (3 of 3 replicates)
* V50T+R56Y+Y60E: nd (0 of 3 replicates)
* R56A+Y60A+F105S: nd (0 of 3 replicates)
* R56N: 11 nM (3 of 3 replicates)
* R56T+V64H+D106N: nd (0 of 3 replicates)
* R56W+D62L: 2.4 µM (2 of 3 replicates)
* T28G+R56S+F59D: 1.2 µM (1 of 3 replicates)
* I51G+R56F+V64D: 110 µM (2 of 3 replicates)
* R56I: 21 nM (3 of 3 replicates)
* S35F+R56T+S63W: nd (0 of 3 replicates)
* S53G+R56D+D106I: 20 µM (1 of 3 replicates)
* R56P+D62A+S63Y: 2.4 µM (1 of 3 replicates)
* G26P+I34S+R56A: 18 µM (1 of 3 replicates)
* G33N+R56C+D106C: nd (0 of 3 replicates)
* R56M+F59R+F105Y: 48 nM (3 of 3 replicates)
* T28E+R56T: 9.5 nM (3 of 3 replicates)
* R56C+S63H: 170 nM (3 of 3 replicates)
* G55R+R56M+G61T: nd (0 of 3 replicates)
* N30S+R56F+F105Q: 110 µM (2 of 3 replicates)
* S31H+R56M+S63T: 12 nM (3 of 3 replicates)
* G33I+R56V: nd (0 of 3 replicates)
* G33D+R56W+K65S: 1.2 mM (1 of 3 replicates)
* L29P+R56G: 150 µM (1 of 3 replicates)

From the list, the first 5 with no signal in any replicate:

* R56S+G61H+V64G: nd (0 of 3 replicates)
* F27V+V50P+R56D: nd (0 of 3 replicates)
* G33D+R56K: nd (0 of 3 replicates)
* R56E+S63K+V64H: nd (0 of 3 replicates)
* L29R+R56D+A102H: nd (0 of 3 replicates)

In this assay the parent's reference entry averaged 4.4 nM; its copy inside this library read 13 µM (one replicate of three).